B2AR arrestin: agonists driving beta-arrestin recruitment to human beta2-adrenergic receptor; P07550; beta-arrestin recruitment to beta2AR, cell-based reporter; Potency, µM (top dose mostly 46.1 µM), for the others: at the top dose activation, usual class: activators; 0.02% of 330,000 active; AID 492947;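 further: potency means the concentration at half of the fitted maximal effect; 0% = DMSO controls and full agonism = EC100 isoproterenol or metaproterenol; nearly all actives have a fitted effect of over 65% in size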
miR-21 reporter: raises the signal of a miR-21 reporter | Potency, µM (doses to about 38.3 µM), for inactives: top-dose reporter change, positive = more light | HeLa miR-21 FLuc reporter, luciferase, 48 h | AID 2288 | 340,000 tested, under 10 active; active = well fitted rising curve with a large enough effect; inconclusive = small, poorly fitted or top-dose-only effect; inactive = no such curve, though single readings can be large or run the other way;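 also: % of control where 0% means no effect; miR-21 action dims this reporter so a rising signal means less miR-21 action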
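HeLa cells stably expressing CMV-driven firefly luciferase with a downstream miR-21 binding sequence, endogenously expressing miR-21, were treated with titrations (up to about 40uM final) for 48 hours at 37 degree Celsius. Luciferase luminescence was read after lysis.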
Nrf2 inh: inhibitors of Nrf2 signaling; A549 ARE-Fluc reporter, luciferase luminescence, 18-24 h; Potency, µM (titrated, usually from 46 µM), for inactives: at the highest dose activity change, negative = inhibition, actives largely listed as inhibitors; 2.1% of 360,000 active; AID 504444; further: potency means the concentration at half of the fitted maximal effect; on the % scale 0 is the no-effect control and ±100 the full control effect; nearly all actives have a fitted effect of over 60% in size
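Reporter: ARE-Fluc in A549. Exposure: 18-24 h, 37 °C, 5% CO2, 5% FBS OPTI-MEM. Readouts: fluorescent cytotoxicity (CellTiter-Fluor), then luminescent Nrf2 signal after BugLite.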
A549 viability: counter-screen for Nrf2 inhibitors: cytotoxicity in A549 cells | 0.16% of 390,000 active | AID 504648 | Potency, µM (highest dose often 46 µM), inactives show top-dose activity change, negative = cytotoxicity, usual class: inhibitors | A549 ARE-Fluc cells, CellTiter-Fluor viability, 18-24 h; further: potency means the concentration at half of the fitted maximal effect; on the % scale 0 is the no-effect control and ±100 the full control effect
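A549 ARE_Fluc cells in 5% FBS OPTI-MEM were exposed to compounds in concentration-response for 18-24 h at 37 deg C. Viability was read by CellTiter-Fluor fluorescence (Ex 405/Em 525) after 30 min, before the luciferase read.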
Nrf2 activator: activators of Nrf2 (ARE) signaling | 0.31% of 410,000 active | Potency, µM (highest dose often 46.1 µM), without a hit: at the highest dose activation, hits mostly activators | AREc32 ARE-luciferase reporter (MCF7-derived line), luminescence, 24 h | AID 624171; further: potency means the concentration at half of the fitted maximal effect; % of control where 0% means no effect; nearly all actives have a fitted effect of over 65% in size
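ARE-driven firefly luciferase activity in AREc32 cells measured after a 24 hr compound exposure at 37 deg C, using Steady-Glo reagent and a 30 min room-temperature hold.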
Active calls of the source: *; ? = inconclusive; nt = no result. Compounds with a hit are over-represented: about 2.2% of the library has one in this group of screens. The call rests on the fitted dose curve; in most records, active means well fitted curve in the direction sought with a large enough effect; inconclusive means small, poorly fitted or top-dose-only effect, or another doubt; inactive means no such curve, though single readings can be large; an effect the other way counts as inactive or inconclusive.

(1) CCc1ccc(CN(Cc2ccco2)C(=O)c2ccc(C)cc2)cc1
(2) CCc1ccc(CN(Cc2ccco2)C(=O)c2cc(-c3ccc(C)c(F)c3)on2)cc1
(3) S=C(Nc1ccc(Oc2ccccc2)cc1)N1CCN(c2ccccn2)CC1
(4) CC(=NNC(=S)N1CCN(c2ccccn2)CC1)c1nccs1
(5) Clc1cc(Cl)cc(Nc2ncnc(-n3cccc3)n2)c1
(6) Cc1ccc(Nc2ncnc(-n3cccc3)n2)cc1Cl
(7) O=C(c1ccc(Cl)c([N+](=O)[O-])c1)N1CCN(c2ccccn2)CC1
(8) O=C(c1ccc(Sc2cccc(Cl)c2)c([N+](=O)[O-])c1)N1CCN(c2ccccn2)CC1
assay / entry	1	2	3	4	5	6	7	8
B2AR arrestin	nt	nt	-1%	nt	0%	0%	4%	0%
miR-21 reporter	4%	25%	-3%	nt	4%	-80%	-4%	4%
Nrf2 inh	-23%	16µM*	16µM*	13µM*	-11%	?	-7%	16µM*
A549 viability	1%	-3%	-21%	-27%	2%	-1%	-2%	-12%
Nrf2 activator	6%	0%	2%	6%	2µM*	?	3%	1%

3 entries already listed, sorted by formula weight, falling:
(4) CC(=NNC(=S)N1CCN(c2ccccn2)CC1)c1nccs1
(5) Clc1cc(Cl)cc(Nc2ncnc(-n3cccc3)n2)c1
(6) Cc1ccc(Nc2ncnc(-n3cccc3)n2)cc1Cl
assay / entry	4	5	6
B2AR arrestin	nt	0%	0%
miR-21 reporter	nt	4%	-80%
Nrf2 inh	13µM*	-11%	?
A549 viability	-27%	2%	-1%
Nrf2 activator	6%	2µM*	?

Further records.
(9) O=c1[nH]c(C2CCN(S(=O)(=O)c3ccccc3C(F)(F)F)CC2)nc2c1nnn2Cc1cccc(F)c1
(10) O=c1[nH]c(C2CCN(S(=O)(=O)c3cccc(Cl)c3)CC2)nc2c1nnn2Cc1ccccc1
(11) Cc1ccc(C(=O)C=CC=Cc2ccccc2)cc1
(12) Cc1ccc(C(=O)C(C(=O)/C=C/c2ccccc2)=C2SCCCS2)cc1
(13) CNC(=S)N/N=C1\C(=O)c2cccc3cccc1c23
(14) c1ccc(CN2CCN(c3nc(-c4ccccc4)nc(-n4ccnc4)n3)CC2)cc1
(15) c1ccc(-c2nc(-n3ccnc3)nc(-n3ccnc3)n2)cc1
(16) c1ccc(N(c2ccccc2)c2nc(N3CCCC3)nc(-n3ccnc3)n2)cc1
assay / entry	9	10	11	12	13	14	15	16
B2AR arrestin	5%	0%	nt	0%	3.5µM*	0%	0%	0%
miR-21 reporter	-8%	-1%	nt	?	-5%	9%	16%	1%
Nrf2 inh	23µM*	15µM*	nt	26µM*	-13%	15µM*	?	23µM*
A549 viability	?	?	nt	?	-25%	-30%	-20%	?
Nrf2 activator	2%	5%	23%	-1%	?	0%	10%	-1%

(17) NS(=O)(=O)c1ccc(N=Nc2c[nH]c(=O)c(O)c2)cc1
(18) COc1ccccc1NC(=O)CSc1cn(CC(=O)N2CCCC2)c2ccccc12
(19) Cc1ccc(C(=O)NC(C)c2ccc(F)cc2)cc1 (stereo unspecified)
(20) Cc1ccc(C(C#N)c2ccc(C(=O)c3ccc(F)cc3)cc2)cc1 (stereo unspecified)
(21) N#CC(c1ccc(F)cc1)c1ccc(C(=O)c2ccc(F)cc2)cc1 (stereo unspecified)
(22) Cc1cc(NC(=O)CSc2nc(-c3cccc(F)c3)nc3c2c(=O)n(C)c(=O)n3C)no1
(23) COc1cccc(CNC(=O)C2CCN(S(=O)(=O)c3ccc4c(c3)NC(=O)C(C)S4)CC2)c1 (stereo unspecified)
(24) CC1Sc2ccc(S(=O)(=O)N3CCC(C(=O)NCCc4ccccc4)CC3)cc2NC1=O (stereo unspecified)
assay / entry	17	18	19	20	21	22	23	24
B2AR arrestin	1%	nt	0%	-1%	0%	nt	0%	0%
miR-21 reporter	3%	13%	-8%	14%	13%	-1%	15%	12%
Nrf2 inh	-21%	-15%	-14%	26µM*	15µM*	nt	18µM*	-28%
A549 viability	23µM*	2%	0%	-1%	-11%	1%	-5%	0%
Nrf2 activator	24%	0%	0%	4%	4%	0%	0%	2%

(25) Cc1ccc(NC(=O)C2CCN(S(=O)(=O)c3ccc4c(c3)NC(=O)C(C)S4)CC2)c(Cl)c1 (stereo unspecified)
(26) Cc1ccc(CCNC(=O)C2CCN(S(=O)(=O)c3ccc4c(c3)NC(=O)C(C)S4)CC2)cc1 (stereo unspecified)
(27) c1nc(NCc2ccoc2)c2cc(-c3ccc4c(c3)OCO4)ccc2n1
(28) O=C(C1COc2ccccc2O1)N1CCN(c2nc3ccc(F)cc3s2)CC1 (stereo unspecified)
assay / entry	25	26	27	28
B2AR arrestin	0%	0%	nt	nt
miR-21 reporter	24%	25%	nt	-2%
Nrf2 inh	23µM*	16µM*	14%	nt
A549 viability	-17%	-25%	-3%	-4%
Nrf2 activator	4%	3%	nt	1%

From PubChem
